Shown are actives, neighbours in structure and some others; about 16% of the full set was active somewhere.
DT40 TDP1 CPT: growth inhibition of DT40 Tdp1-/-;hTDP1 cells with camptothecin (screen for TDP1 inhibitors); Potency, µM (doses to about 46.2 µM), for inactives: at the highest dose activity change, negative = growth inhibition, actives largely listed as inhibitors; chicken DT40 Tdp1-/-;hTDP1 cells + 20 nM CPT, ATP luminescence, 48 h; hit rate 12% among 420,000; also: potency is read from the fitted curve at half-maximal effect; % is scaled to controls: 0 for no effect and ±100 for the full control effect; nearly all actives have a fitted effect of over 55% in size
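Chicken DT40 Tdp1-/- cells stably complemented with human TDP1 were seeded at 400 cells/well in medium containing 20 nM camptothecin, exposed to pin-transferred compounds, and grown at 37 °C for at least 48 hr. Viability was read as ATP luminescence.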
TDP1 block: TDP1 (human) enzyme inhibition; Q9NUW8; recombinant TDP1, AlphaScreen DNA substrate cleavage; Potency, µM (doses to about 130 µM), without a hit: at the top dose activity change, negative = inhibition, hits mostly inhibitors; hit rate 0.28% among 350,000; AID 485290; also: potency is read from the fitted curve at half-maximal effect; % is scaled to controls: 0 for no effect and ±100 for the full control effect; nearly all actives have a fitted effect of over 40% in size
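Recombinant human Tdp1 (E. coli-expressed, 1 nM final) preincubated with compounds 15 min at room temperature, then 5'-biotin/3'-phosphotyrosine-FITC DNA substrate (15 nM final) added for 5 min. AlphaScreen beads (10 ug/ml final) added 10 min; cleavage lowers signal.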
uPA surface inh: blocks generation of uPA at the cell surface; hit rate 0.31% among 330,000; cell surface uPA generation assay, qHTS; AID 540303; Potency, µM (top dose mostly 38.3 µM), for the others: at the highest dose activity change, negative = inhibition, hits mostly inhibitors; active = well fitted inhibition curve with a large enough effect; inconclusive = small, poorly fitted or top-dose-only effect; inactive = no such curve, though single readings can be large or run the other way; tested in mouse RAW 264.7 cells; also: potency is read from the fitted curve at half-maximal effect; % is scaled to controls: 0 for no effect and ±100 for the full control effect; nearly all actives have a fitted effect of over 55% in size
miR-21 FLuc: raises the signal of a miR-21 reporter; HeLa miR-21 FLuc reporter, luciferase, 48 h; Potency, µM (top dose mostly 38.3 µM), for inactives: at the highest dose reporter change, positive = more light; AID 2288; 340,000 tested, under 10 active; active = well fitted rising curve with a large enough effect; inconclusive = small, poorly fitted or top-dose-only effect; inactive = no such curve, though single readings can be large or run the other way;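 note: % of control where 0% means no effect; miR-21 action dims this reporter so a rising signal means less miR-21 action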
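Using DMEM plus 10% FBS, HeLa miR-21-FLuc cells are incubated with test compounds (final up to about 40uM) for 48 hours; firefly luciferase signal is then imaged following reagent-mediated lysis.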
TDP1 cell noCPT: qHTS for Inhibitors of human tyrosyl-DNA phosphodiesterase 1 (TDP1): qHTS in cells in absence of CPT; DT40 Tdp1-/- hTDP1 cells, no CPT, ATP luminescence, 48 h; Potency, µM (doses to about 46.2 µM), for the others: at the highest dose activity change, negative = growth inhibition, hits mostly inhibitors; hit rate 15% among 420,000; AID 686978, 2013; also: potency is read from the fitted curve at half-maximal effect; % is scaled to controls: 0 for no effect and ±100 for the full control effect; nearly all actives have a fitted effect of over 55% in size
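No-CPT arm: Tdp1-/-;hTDP1 DT40 cells (400/well) plus compounds, incubated ≥48 hr at 37 °C. Readout CellTiter-Glo luminescence.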
* = called active by the depositor; ? = inconclusive; nt = no result; [ ] = another dose, or the depositor's remark. Unless noted, calls follow the shape of the dose curve; as a rule, active = well fitted curve in the direction sought with a large enough effect; inconclusive = small, poorly fitted or top-dose-only effect, or another doubt; inactive = no such curve, though single readings can be large; an effect the other way counts as inactive or inconclusive.

SMILES	DT40 TDP1 CPT	TDP1 block	uPA surface inh	miR-21 FLuc	TDP1 cell noCPT
c1ccc(C(c2ccccc2)c2ccncc2)cc1	?	nt	2.0%	nt	20.6µM*
COc1ccc(CCNc2nccn(-c3ccc(C)c(C)c3)c2=O)cc1OC	14.6µM*	10.5%	nt	2.1%	13µM*
CC(C)(O)[C@@H]1C2OC(=O)[C@@H]1[C@]1(O)C[C@H]3O[C@]34C(=O)O[C@H]2[C@]14C	?	7.1%	nt	nt	-6.5%
O=c1c2ccccc2nc(/C=C\c2ccccc2[N+](=O)[O-])n1-c1ccccc1O	?	7.1%	4.8%	17.7%	23.1µM*
O=c1c2ccccc2nc(/C=C/c2ccccc2F)n1-c1ccccc1O	-45.1%	nt	?	-14.2%	-22.5%
O=c1c2ccccc2nc(/C=C/c2ccccc2)n1-c1ccccc1F	?	7.8%	nt	18.5%	?
Cc1ccccc1-n1c(/C=C/c2c(C)[nH]c3ccccc23)nc2ccccc2c1=O	2.06µM*	5.7%[12.3 µM]	nt	?	1.84µM*
O=c1c2ccccc2nc(/C=C/c2ccccc2O)n1-c1ccccc1O	nt	nt	nt	24.6%	nt
Cc1ccccc1-n1c(/C=C/c2ccc(N(C)C)cc2)nc2ccccc2c1=O	16.4µM*	-4.8%[12.3 µM]	nt	17.4%	13µM*
O=c1c2ccccc2nc(/C=C\c2ccc(F)cc2)n1-c1ccccc1F	23.1µM*	13.0%	nt	14.1%	?
CSc1ncc(Cl)c(C(=O)O)n1 (tested in a mixture with another compound)	-0.9%	2.3%	1.0%	0.8%	-19.7%
O=C(NCc1ccccc1)c1cccn(Cc2cccc(Cl)c2)c1=O	?	nt	6.1%	-4.1%	?
CC1=C(C/C(C)=C/c2ccccc2)/C(=C/CO)[C@H](O)[C@](C)(O)C12CC2	?	nt	1.7%	nt	?
CCCCc1nc2ccccc2c(=O)n1-c1ccccc1[N+](=O)[O-]	?	3.9%	7.6%	-3.6%	14.6µM*
O=P(Nc1ccccc1)(Nc1ccccc1)Oc1cccc(Cl)c1	?	0.0%	nt	12.1%	?
CCCCN1CC(COCc2ccccc2)Oc2cccc(Oc3ccc(C(C)C)cc3)c2S1(=O)=O (stereo unspecified)	10.3µM*	nt	2.7%	nt	5.17µM*
COc1ccc(CNC(=O)Cn2c(SCC(=O)Nc3ccc(C)c(C)c3)nc3ccccc32)cc1	?	3.8%	nt	-8.7%	4.61µM*
Cc1cccc(-n2c(=O)c3c(c4cc(C)ccc4n3C)n(CC(=O)Nc3ccc(C)c(C)c3)c2=O)c1	-19.8%	2.8%	nt	4.8%	?
O=c1cc(-c2ccccc2Cl)oc2c(NS(=O)(=O)c3cc(Cl)cc(Cl)c3O)ccc(O)c12	9.2µM*	19.4%	?	?	11.6µM*
COP(=O)(CC(=O)O)c1ccccc1 (stereo unspecified)	-2.2%	-3.0%	nt	-2.8%	-8.9%

Looked up above:
Under TDP1 block, COc1ccc(CNC(=O)Cn2c(SCC(=O)Nc3ccc(C)c(C)c3)nc3ccccc32)cc1 reads 3.8%
Under miR-21 FLuc, O=c1c2ccccc2nc(/C=C\c2ccc(F)cc2)n1-c1ccccc1F reads 14.1%

Five structures already listed, arranged by length of the SMILES, ascending.
SMILES	DT40 TDP1 CPT	TDP1 block	uPA surface inh	miR-21 FLuc	TDP1 cell noCPT
CSc1ncc(Cl)c(C(=O)O)n1 (tested in a mixture with another compound)	-0.9%	2.3%	1.0%	0.8%	-19.7%
O=C(NCc1ccccc1)c1cccn(Cc2cccc(Cl)c2)c1=O	?	nt	6.1%	-4.1%	?
CCCCc1nc2ccccc2c(=O)n1-c1ccccc1[N+](=O)[O-]	?	3.9%	7.6%	-3.6%	14.6µM*
CC1=C(C/C(C)=C/c2ccccc2)/C(=C/CO)[C@H](O)[C@](C)(O)C12CC2	?	nt	1.7%	nt	?
Cc1cccc(-n2c(=O)c3c(c4cc(C)ccc4n3C)n(CC(=O)Nc3ccc(C)c(C)c3)c2=O)c1	-19.8%	2.8%	nt	4.8%	?

The list continues:
SMILES	DT40 TDP1 CPT	TDP1 block	uPA surface inh	miR-21 FLuc	TDP1 cell noCPT
COC(=O)[C@@H]1C[C@@]1(C)[C@@H](NP(=O)(c1ccccc1)c1ccccc1)c1ccccc1	?	3.9%	-14.4%	2.6%	20.6µM*
ClCCN(CCCl)c1ccc(/C=C/c2sc3ccccc3[n+]2CCCCI)cc1	3.16µM*	nt	nt	nt	2.51µM*
COc1c(C)cc(C(=O)C2CCCN(Cc3cnc(C)s3)C2)cc1C (stereo unspecified)	?	nt	-3.9%	0.0%	25.9µM*
COc1c(C)cc(C(=O)C2CCCN(Cc3ccccn3)C2)cc1C (stereo unspecified)	?	5.1%	-6.3%	0.1%	18.4µM*
COC(=O)C1=C(C)NC(COC(N)=O)=C(C(=O)OC(C)C)C1c1cccc(Cl)c1Cl (stereo unspecified)	29.9µM*	nt	nt	nt	33.5µM*
CN1C2CCC1CC(OC(c1ccccc1)c1ccc(Cl)cc1)C2 (stereo unspecified)	2.99µM*	13.2%[56.1 µM]	nt	nt	4.73µM*
O=S1(=O)N(Cc2ccccc2)CCCN1Cc1cccc(Cl)c1	-2.6%	nt	nt	3.8%	?
C#CCN1C(=O)C2(C(C#N)=C(N)OC(C)=C2C(=O)OCc2ccccc2)c2ccccc21 (stereo unspecified)	?	2.9%	nt	-6.6%	23.1µM*
O=C(NCCCN1CC1)Nc1cccc2ccccc12	1.64µM*	nt	-0.7%	nt	7.31µM*
CC(=O)Nc1cccc2c1Cc1ccccc1-2	11.0%	2.7%	-28.5%	-52.1%	-21.6%
O=C(CCN1CC=C(c2ccccc2)CC1)NCc1ccccc1	-8.3%	nt	nt	nt	-29.0%
Cc1ccccc1NC(=O)NCCN1CC1	4.11µM*	1.3%	3.2%	-4.6%	7.31µM*
CC(CC(C)(C)N1CC1)=NNC(=O)Nc1cccc2ccccc12	3.66µM*	nt	-1.1%	nt	2.91µM*
c1ccc(OCc2ccc(CCCN3CCOCC3)cc2)cc1	?	0.3%	6.1%	-12.1%	21.1µM*
O=C(NC(=O)N1CCC2(CC1)OCCO2)c1ccc(Cl)cc1	20.3%	2.4%	3.2%	-1.5%	-4.1%
CCCCCCC(=O)N/N=C/c1c(O)n(CCCC)c(=S)[nH]c1=O	?	7.7%	-1.0%	-0.2%	18.4µM*
CCCCCCn1c(O)c(C=Nc2ccccc2N2CCOCC2)c(=O)[nH]c1=S	?	4.1%	11.2%	-3.3%	14.6µM*
COC(=O)C1=C(c2ccc(F)cc2OCc2ccccc2)C[C@@H]2CC[C@H]1N2C(=O)NCc1ccc([N+](=O)[O-])cc1	?	-0.9%	?	nt	?
N=C1c2ccccc2CN1NC(=O)c1ccc(Cl)cc1	-18.4%	5.8%	-2.6%	-11.1%	?
O=C(NCCc1ccc(Cl)cc1)c1ccc(Nc2nc3ccccc3n3nnnc23)cc1	?	-2.1%[12.3 µM]	nt	0.7%	10.3µM*
Cc1ccc(CNC(=O)c2ccc(Nc3nc4ccccc4n4nnnc34)cc2)cc1	?	0.0%	nt	-47.0%	14.6µM*
COP(=S)(OC)Oc1ccc(SC)c(C)c1	-11.4%	-3.4%[56.1 µM]	10.8%	nt	-11.6%
C[C@]12CCC(=O)C=C1CCc1ccc(O)cc12	-4.7%	11.3%[56.1 µM]	nt	nt	-18.9%
COc1ccc([C@H]2CC(=O)C=C(c3c(OC)cccc3OC)C2)cc1	2.91µM*	0.2%	2.24µM*	nt	2.06µM*
COc1ccc([C@H]2CC(=O)C=C(c3ccc4c5c(cccc35)CC4)C2)cc1	?	0.0%	5.4%	nt	?
COP(=S)(OC)SCn1nnc2ccccc2c1=O	?	12.6%	nt	nt	23.1µM*
COc1ccc(OC)c(N2C(=O)/C(=C/c3ccco3)C(=O)NC2=S)c1	-20.8%	nt	4.8%	0.0%	-27.3%
COc1ccc(OC)c(N2C(=O)NC(=O)/C(=C/c3ccc([N+](=O)[O-])s3)C2=O)c1	16.4µM*	2.6%	-2.9%	5.9%	16.4µM*
CSc1ccc(CN2CCC2(C)C(=O)Nc2cccc(NS(C)(=O)=O)c2)cc1 (stereo unspecified)	18.4µM*	nt	nt	nt	23.1µM*

Assay outcomes (PubChem)
